The assay concerns the target T1, Recombinant human sTNF (soluble form of tumor necrosis factor) (human, UniProt P01375 77-233).
T1 construct: additional N-terminal methionine, stated in words; tumor necrosis factor, human, soluble form (157 residues), residues 77-233 of UniProt entry P01375; Monomeric on the SPR chip after long flushing and glycine pH 3.3 washes; multimeric in solution in the fluorimetric titrations and cross-linking; also called TNF-α; TNF ligand superfamily member 2; source: bought: Prospec-Tany Technogene (catalog # …)
The assay can be described thus: SPR; ligand (50 μg/mL sTNF or TNF-β) immobilised on a ProteOn GLH chip by amine coupling; chip flushed with running buffer for two days and several times with 10 mM glycine pH 3.3 to dissociate sTNF multimers (monomeric sTNF); Ca2+-loaded S100 protein as analyte, 10 nM–2 µM; 25 °C; 10 mM HEPES, 150 mM NaCl, 1 mM CaCl2, 0.05% TWEEN 20, pH 7.4; heterogeneous ligand model. The conditions noted are these: both partners purified.

Sequences of proteins named here, by UniProt entry; tags and fusion partners are left off. A line that says so, or that is headed by a name, gives the form on record, which may keep a tag or linker.
UniProt P01375, other isoform, or with tags, fused parts or gaps: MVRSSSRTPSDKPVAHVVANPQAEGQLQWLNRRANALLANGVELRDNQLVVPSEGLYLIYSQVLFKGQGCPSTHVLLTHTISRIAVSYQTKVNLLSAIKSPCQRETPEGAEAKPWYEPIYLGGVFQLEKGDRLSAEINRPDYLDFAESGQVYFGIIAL

Bounds are passed on as bounds.

B1: Recombinant human S100A1 (natural protein, UniProt P23297 1-94, looked up)
chain: MGSELETAMETLINVFHAHSGKEGDKYKLSKKELKELLQTELSGFLDAQKDVDAVDKVMKELDENGDGEVDFQEYVVLVAALTVACNNFFWENS
notes: S100A1, human; Ca2+-loaded in the assay; source: E. coli, purified as previously described
The term Kd denotes a measure of binding affinity in units of concentration. Consider B1, for which the Kd was over 100 µM.

Values taken from paper PMC9783754, “Specific S100 Proteins Bind Tumor Necrosis Factor and Inhibit Its Activity” (International Journal of Molecular Sciences, 2022).
